The values that follow come from patent US8067582B2 (Bristol-Myers Squibb Company, priority 2007, dated 2011).

This assay deals with androgen receptor (AR) (Homo sapiens, UniProt P10275). Nature of the assay: MDA-MB-453 Androgen Receptor Transactivation Assay (PSA-Luc reporter, 3 nM DHT). It counts as cell-based. The settings on record: MDA-MB-453 cells, antagonism in presence of 3 nM DHT, 48 hour incubation. The text has this:
Compounds can be tested in a cell based transactivation assay used to measure the antagonism of androgen receptor (AR) transcriptional activity. The transactivation assay provides a means of identifying antagonists that inhibit the effects of the native hormone dihydrotestosterone (DHT). […] The pGL3 PSA-Luc reporter plasmid is comprised of the cDNA for the firefly luciferase gene and the upstream promoter sequences containing the androgen response elements (AREs) of the prostate specific antigen (PSA). This plasmid functions as a reporter for the transcription-modulating activity of the AR. In order to detect antagonists, the transactivation assay is conducted in the presence of constant concentration of the natural AR hormone (DHT) to induce a defined reporter signal. […]
MDA-MB-453 and 22 RV1 cells were maintained in DMEM (Cellgro, Cat. #10-014-CM) or RPMI 1640 (Gibco Cat. #11875-085) respectively and supplemented with 10% FBS (Invitrogen/GIBCO Life Science). […] Following transfection, cells are washed, treated with trypsin, counted, and seeded in a 96-well plate at 30,000 cells per well in DMEM containing 10% Charcoal/Dextran Treated Fetal Bovine Serum (Gibco Cat. #11054-020) for MDA-MB-453 cells or RPMI 1640 (Gibco Cat. #110835) containing 10% FBS (Invitrogen/GIBCO Life Science) for 22 RV1 cells. […]

In the case of “4-((1S,4S,7S,8R,10S,11R)-10-Hydroxy-8-methyl-6-oxo-3,12-dioxa-5-azatetracyclo[5.3.1.1^1,8.0^4,11]dodec-5-yl)-2-(trifluoromethyl)benzonitrile [Example 39]”, the IC50 is 719 nM.

In general, IC50 refers to the concentration at which inhibition is half-maximal.
